Yeast mating assay 2: variants of the scFv Ab-95

Source: Engelhart et al. 2022 (doi:10.1038/s41597-022-01779-4), MIT Lincoln Laboratory and A-Alpha Bio; data file from the FLAb repository.

Binding partner: SARS-CoV-2 spike HR2 peptide, sequence PDVDLGDISGINAS.

Ab-95 is the parent antibody, in scFv form: VH, then three GGGGS repeats, then VL. The heavy chain is unchanged in all variants.
VH: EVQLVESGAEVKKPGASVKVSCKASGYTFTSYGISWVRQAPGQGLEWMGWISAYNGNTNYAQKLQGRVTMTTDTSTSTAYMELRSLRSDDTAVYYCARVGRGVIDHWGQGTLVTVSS
VL: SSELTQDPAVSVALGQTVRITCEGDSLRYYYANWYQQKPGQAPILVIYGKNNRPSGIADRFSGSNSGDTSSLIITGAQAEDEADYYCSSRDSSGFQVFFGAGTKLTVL

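Phage display of a naive human antibody library on the peptide gave the parent. Library AAYL52 holds single substitutions and randomly drawn double and triple substitutions in the CDRs. The assay is AlphaSeq: two haploid yeast populations carry antibody and antigen on their surface. After mating in shaken culture at 30 °C for 16 h, diploids were selected and their barcode pairs sequenced. Each replicate has its own calibration line, from reference interactions of the BCL2 family. Mating was done three times.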

Each variant is given by its three light chain CDRs, as the data file delimits them; those of the parent are EGDSLRYYYAN, GKNNRPS, SSRDSSGFQVF. The read-out is the apparent dissociation constant on a log10 scale (nM): the lower, the stronger. Where no diploid with the target was found in that replicate, the entry reads "nd": below detection, most likely a poor binder, though not proof of it. Background: pairings of library AAYL52 with three empty control strains gave a value in 28% of cases (median 3.91, 5th percentile 2.90). Values in that range, when seen in few replicates, are hard to tell from nonspecific mating. The control count says in how many pairings with the empty strains this scFv gave a signal, with their mean in brackets. In this assay the parent's reference entry averaged 2.31; its copy inside this library read 2.25.

CDR-L1,CDR-L2,CDR-L3,"replicates, log10 nM",signal with controls
EGDSHRYYYAN,GKNGRPS,SSRDSSTFQVF,4.38 / nd / nd,2/9 (4.08)
EGDSLRYYYAN,GKNLRPS,SSRDVSGSQVF,2.09 / 2.40 / 2.34,2/9 (4.38)
EGDSLRYYYVN,GKNNRPS,SSRDSSGFQVA,2.73 / nd / nd,2/9 (3.24)
EGDSIRYYTAN,GKNPRPS,SSRDSSGFQVF,nd / 4.74 / 3.70,6/9 (4.76)
EGDSLRYYYAN,GKNNRPS,SIRDSSFFQVK,nd / 4.55 / nd,2/9 (3.74)
EGCSLRYYYAN,GKNNPPS,SSRDSSGFQVF,nd / 4.71 / nd,2/9 (4.16)
EGDSLRYSYAN,GKTNRPS,SRRDSSGFQVF,2.96 / 2.66 / 4.01,1/9 (4.37)
EGTSLRYYYAN,GKNNRKS,SSRDSSGFQVD,3.62 / 3.35 / 4.37,3/9 (4.25)
EGDSSRQYYAN,GKENRPS,SSRDSSGFQVF,4.01 / 3.88 / 2.28,4/9 (4.09)
WGDSLRYYYAG,GKNNRWS,SSRDSSGFQVF,3.66 / 4.20 / nd,4/9 (4.76)
EADSLRYYQAN,GKNNRPS,SSRDWSGFQVF,2.96 / 3.21 / 3.58,3/9 (3.53)
EGDSLRYYYAN,GKNNFPS,SSRDSSGFKAF,nd / nd / nd,0/9
QGDSLRYYYAN,GKNNRPS,SHRDSSFFQVF,2.22 / 3.07 / 2.55,4/9 (3.88)
EFDYLRYYYAN,GKNNRPS,SSRDASGFQVF,3.29 / 3.23 / 2.66,7/9 (4.07)
EHDTLRYTYAN,GKNNRPS,SSRDSSGFQVF,2.03 / 1.91 / 1.55,5/9 (3.73)
EGQSLRYYYLN,GKNNKPS,SSRDSSGFQVF,2.84 / 2.92 / 2.58,3/9 (3.69)
WGDSLRYYYAN,GKNWRPS,SSRMSSGFQVF,4.37 / nd / nd,4/9 (4.16)
EHDSLRYYYAN,HKNNRPS,SSRDSSGFQAF,4.00 / 3.85 / nd,1/9 (4.54)
EGDSLRYYYAN,GKNNRPS,SSRDSSGGYVF,2.97 / 3.84 / 3.79,3/9 (4.44)
EGDSLRYYYAN,GKNNRPS,SSRDLSFFQQF,2.86 / 2.42 / 2.79,3/9 (4.09)
MGDSLRYYYAN,GKNNFPS,SSRDSSGFQCF,3.84 / nd / nd,1/9 (4.11)
EMESLRYDYAN,GKNNRPS,SSRDSSGFQVF,2.18 / 2.30 / 1.74,1/9 (3.93)
EGDSLRYYTAN,GKNVRPS,SRRDSSGFQVF,2.44 / 1.36 / 3.44,1/9 (3.47)
EGDSHRYFYAN,GKNNRPS,SSRDSSGFQVR,3.04 / 2.74 / nd,3/9 (4.11)
EGDSLRYYYWH,GKNNRIS,SSRDSSGFQVF,4.42 / 3.58 / nd,6/9 (3.89)
EGDSLRYYYAN,GKNNRPS,TSRDQSGFQVF,1.96 / 2.04 / 2.32,3/9 (3.40)
EGDSLRYYYAN,GKNNRPS,SSRDSSGFQEA,3.58 / 3.42 / 2.49,0/9
EGDSLRYYYAN,NKNNRPS,SSRDSSGTQVF,2.93 / 2.55 / 2.77,6/9 (4.38)
EGDSLRYYYNN,GHNRRPS,SSRDSSGFQVF,4.53 / 3.23 / 3.81,2/9 (3.95)
EGDSLRYYYAN,IKNNRQS,SSYDSSGFQVF,nd / nd / nd,0/9
EGDFLRYYYAN,GKNNRPS,SSRESSGFQVF,4.70 / nd / nd,2/9 (3.49)
HGDSLRYYYAN,GYNNRPS,SSRDESGFQVF,2.51 / 2.54 / 2.46,2/9 (4.31)
EGDSLRYYYAN,GKNNRPS,SSPISSGFFVF,2.84 / 2.33 / 2.44,4/9 (4.34)
EGDSLRYYYAN,RKNNVPS,SSRDSSGYQVF,nd / nd / nd,2/9 (3.64)
EGDSLRYYYAM,CKNNRPS,SSRDSSGFDVF,3.91 / nd / 4.40,3/9 (4.85)
HGDSLRIYYAN,GKNNRPS,SSRDSIGFQVF,nd / nd / 4.06,0/9
EGDSLRYYYAF,GKNNRHS,SSRHSSGFQVF,4.89 / nd / nd,3/9 (3.72)
EGDSLRYYYAN,GNNNVLS,SSRDSSGFQVF,3.01 / 3.49 / 2.30,1/9 (3.29)

Excerpt, the first 6 entries:

CDR-L1,CDR-L2,CDR-L3,"replicates, log10 nM",signal with controls
EGDSHRYYYAN,GKNGRPS,SSRDSSTFQVF,4.38 / nd / nd,2/9 (4.08)
EGDSLRYYYAN,GKNLRPS,SSRDVSGSQVF,2.09 / 2.40 / 2.34,2/9 (4.38)
EGDSLRYYYVN,GKNNRPS,SSRDSSGFQVA,2.73 / nd / nd,2/9 (3.24)
EGDSIRYYTAN,GKNPRPS,SSRDSSGFQVF,nd / 4.74 / 3.70,6/9 (4.76)
EGDSLRYYYAN,GKNNRPS,SIRDSSFFQVK,nd / 4.55 / nd,2/9 (3.74)
EGCSLRYYYAN,GKNNPPS,SSRDSSGFQVF,nd / 4.71 / nd,2/9 (4.16)